Results on 2 molecules are retold here after patent publication US11058702B2 (EMEK, Inc., priority 2014, dated 2021).

For data set [1] the following is noted: mouse, in vivo, po.
The subject of data set [2] is locally advanced rectal cancer. Conditions: with increased normal tissue complications; cited from earlier work.

Regarding `O=c1ncc(I)cn1[C@H]1C[C@H](O)[C@@H](CO)O1` [IPdR], the myelosuppression entry in data set [1] is reported as “no myelosuppression”. Turning to “cetuximab: humanized monoclonal antibody targeting the epidermal growth factor receptor”, the “effect on pCR rate when added during pre-operative RT+FP” value in data set [2] is reported as “without any improvement in pCR rate”.
